Assay outcomes (PubChem BioAssay)
PINK1 modulator: modulators of PINK1 expression; PINK1 immunofluorescence, high-content cytometry, 24 h; Potency, µM (doses to about 76.6 µM), inactives show at the highest dose activation (PINK1 increase), usual class: activators; actives 0.2% (n = 410,000); active = well fitted activation curve with a large enough effect; inconclusive = small, poorly fitted or top-dose-only effect; cell line not stated here; also: potency is read from the fitted curve at half-maximal effect; % of control where 0% means no effect; nearly all actives have a fitted effect of over 65% in size
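PINK1 protein, normally rapidly degraded, was detected by immunofluorescence after 24 hour compound treatment of a stable cell line. Titration data (5 concentrations) came from laser-scanning cytometry, with CCCP-treated wells as controls.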
miR-21 reporter: raises the signal of a miR-21 reporter; HeLa miR-21 FLuc reporter, luciferase, 48 h; Potency, µM (top dose mostly 38.3 µM), for inactives: at the highest dose reporter change, positive = more light; AID 2288; 340,000 tested, under 10 active; active = well fitted rising curve with a large enough effect; inconclusive = small, poorly fitted or top-dose-only effect; inactive = no such curve, though single readings can be large or run the other way;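 note: % of control where 0% means no effect; miR-21 action dims this reporter so a rising signal means less miR-21 action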
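Compounds were titrated across several concentrations (up to approximately 40 uM) and incubated 48 hours with HeLa miR-21-FLuc reporter cells (miR-21 target sequence downstream of FLuc, endogenous miR-21). Readout was firefly luciferase luminescence after lytic detection reagent.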
TrxR1 substrate: substrates of rat thioredoxin reductase 1 | purified TrxR1 substrate turnover, NADPH consumption readout | Potency, µM (series often up to 114 µM), inactives show top-dose activity change, negative = substrate turnover | actives 0.01% (n = 390,000) | AID 588456; also: potency is read from the fitted curve at half-maximal effect; % is scaled to controls: 0 for no effect and ±100 for the full control effect; nearly all actives have a fitted effect of over 50% in size
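Rat TrxR1, dispensed at 90 nM, was prereduced with 400 uM NADPH (final) for 5 min at ~22 deg C, then incubated with compound 15 min before 400 uM selenite. A first-read NADPH fluorescence drop versus no-compound background flagged substrates.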
GALK inhibitor: galactokinase (human) inhibition; Potency, µM (titrated, usually from 57.5 µM), without a hit: at the top dose activity change, negative = inhibition, usual class: inhibitors; AID 1868; Purified GALK, Kinase-Glo residual ATP luminescence; actives 0.007% (n = 270,000); also: potency is read from the fitted curve at half-maximal effect; % is scaled to controls: 0 for no effect and ±100 for the full control effect
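ATP-depletion format; final 35 uM ATP, 100 uM D-galactose, 5 nM enzyme; pH 8.0 HEPES/Mg2+ buffer; 60 min RT; luminescence read 10 min after detection reagent.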
rTrxR1 inhibitor: rat TrxR1 inhibition | Potency, µM (top dose mostly 114 µM), inactives show at the top dose activity change, negative = inhibition, usual class: inhibitors | recombinant rTrxR1, NADPH fluorescence consumption, selenite substrate | AID 588453 | O89049 | actives 1% (n = 390,000); also: potency is read from the fitted curve at half-maximal effect; % is scaled to controls: 0 for no effect and ±100 for the full control effect; nearly all actives have a fitted effect of over 65% in size
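Rat TrxR1 (90 nM in the dispensed reagent) was pre-reduced with 400 uM NADPH for 5 min at room temperature, then incubated with compound for 15 min. After 400 uM selenite was added, NADPH fluorescence (Ex 340/Em 450 nm) was followed for 8 min.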
Numbers without * were called inactive; u = inconclusive; x = no result; [ ] = dose if it differs, or a comment. An excerpt weighted towards active compounds, which were near 1.1% of everything screened. Unless noted, calls follow the shape of the dose curve; as a rule, active = well fitted curve in the direction sought with a large enough effect; inconclusive = small, poorly fitted or top-dose-only effect, or another doubt; inactive = no such curve, though single readings can be large; an effect the other way counts as inactive or inconclusive.

structure | PINK1 modulator | miR-21 reporter | TrxR1 substrate | GALK inhibitor | rTrxR1 inhibitor
COCC(=O)Nc1cc(C(=O)NC2CCc3ccccc32)c2c(c1)nc(-c1ccncc1)n2C (stereo not drawn) | 0.2% | x | x | x | x
O=C(NCCc1nnc2n1CCN(Cc1ccc(F)cc1)CC2)c1ccc(F)cc1 | -0.1% | x | x | x | x
COc1cc(=O)n2c(c1C(=O)NCc1ccc3c(c1)OCO3)CCN(C(=O)c1ccccc1F)CC2 | 1.4% | x | x | x | x
CCN1/C(=C/c2ccc3cc(C)ccc3[n+]2CC)Sc2cc(C)ccc21 | u | 14.6% | 0.1% | 10.5% | 14.4%
CCCCN1/C(=C/c2ccc3ccccc3[n+]2CC)Sc2ccccc21 | 11.2µM* | u | -10.3% | -2.4% | -19.7%
CC(=O)c1ccc(NC(=O)Cn2cc3c(n2)CCCC3)cc1 | -0.7% | 0.8% | -6.8% | x | -4.2%
CCN1C(=O)/C(=C/c2cccs2)N(C)C1=S | 0.2% | -4.6% | 7.0%[57.1 µM] | -1.7% | 10.3%[57.1 µM]
CCN1C(=O)/C(=C/c2ccc(C)o2)N(C)C1=S | -1.2% | -0.3% | -11.0% | 0.4% | 31.6µM*
CCOC(=O)c1cnc2c(C)cc(Cl)cc2c1NCCCN1CCOCC1 | 1.9% | 0.5% | 3.5% | 1.5% | 12.7%
CCOC(=O)c1cnc2c(Cl)cc(Cl)cc2c1NCCCN1CCOCC1 | 4.7% | -2.6% | 5.4% | 0.8% | 15.8µM*
COCCCNC(=O)Nc1cc(C(=O)NCc2ccc(OC)cc2)ccc1N1CCCC1 | -1.9% | -23.7% | -1.4%[57.1 µM] | x | 1.8%[57.1 µM]
Cc1nn(-c2ccc(N3CCCC3)nn2)c(C)c1CCC(=O)N1CCN(c2ccc(F)cc2)CC1 | 2.3% | 2.4% | 1.9%[57.1 µM] | x | 8.3%[57.1 µM]
Nc1cc(OC(=O)c2ccco2)nn1S(=O)(=O)c1ccc(F)cc1 | -0.7% | -4.8% | -3.7%[57.1 µM] | 1.4% | 7.08µM*
Cc1ccc(S(=O)(=O)n2nc(OC(=O)c3ccco3)cc2N)cc1 | -0.3% | x | 24.1%[57.1 µM] | x | u
O=C(N/N=C/c1ccc([N+](=O)[O-])o1)c1ccncc1 | 2.4% | 28.8% | -20.4% | 0.3% | -69.5%
O=[N+]([O-])c1ccc(/C=N\NS(=O)(=O)c2ccc(F)cc2)o1 | 1.4% | 0.5% | -20.2% | 3.7% | 31.6µM*
COc1ccc(S(=O)(=O)N/N=C\c2ccc([N+](=O)[O-])o2)c(OC)c1 | -0.5% | -3.9% | -14.9% | -7.5% | 35.5µM*
Cc1cc(-c2csc(N)n2)c(C)n1Cc1ccco1 | -1.7% | -8.3% | -4.4% | -3.7% | 15.8µM*
Cc1cc(CNCCN(C)C)c(C)n1-c1cc(S(=O)(=O)N2CCOCC2)ccc1N1CCCC1 | 2.7% | x | 27.5% | x | 89.1µM*
O=C(O)c1cc(NCc2cc(O)ccc2O)ccc1O | 0.4% | x | 6.5% | x | 39.8µM*
O=C(OCC12CC3CC(CC(C3)C1)C2)c1ccc(NCc2cc(O)ccc2O)cc1 | -1.7% | x | -10.1% | x | -15.2%
CCCCc1nn2c(=O)cc(COC(=O)c3cccc(OC)c3)nc2s1 | -0.1% | -0.2% | 1.4%[57.1 µM] | x | 16.3%[57.1 µM]
N#CC1=C(N)C(C#N)(C#N)[C@H](c2ccoc2)[C@H]2CN(Cc3ccccc3)CC=C12 | u | 10.4% | 12.9%[57.1 µM] | -3.5% | 7.5%[57.1 µM]
CN1CC=C2C(C#N)=C(N)C(C#N)(C#N)C(c3cccc(Cl)c3Cl)C2C1 (stereo not drawn) | 14.1µM* | 0.0% | 22.6% | -4.4% | -12.8%
CC(=O)N1CC=C2C(C#N)=C(N)C(C#N)(C#N)[C@H](c3ccoc3)[C@H]2C1 | 3.6%[38.3 µM] | -5.6% | 10.0%[2.29 µM] | -3.3% | 14.2%[2.29 µM]
CN1CC=C2C(C#N)=C(N)C(C#N)(C#N)[C@H](c3ccoc3)[C@H]2C1 | 39.8µM* | 3.6% | 92.9% | -2.3% | 4.7%[57.1 µM]
Cc1ccc(NC(=O)C2CC(=O)N(c3ccc(OC(C)C)cc3)C2)cc1 (stereo not drawn) | -1.5% | 5.0% | -1.5% | x | 10.3%
CNC(=O)C1CCC(Cn2c(=O)c3sccc3n(CC(=O)Nc3ccccc3)c2=O)CC1 (stereo not drawn) | 0.8% | -1.1% | 10.5%[57.1 µM] | x | 22.1%[57.1 µM]
C=C1C(=O)C23C(O)C1CCC2C12CCCC(C)(COC(C)=O)C1C(O)C3(O)OC2 (stereo not drawn) | -0.6% | x | -7.4% | x | 7.08µM*
CN(C)C(=O)N1CCN(S(=O)(=O)c2ccc3ccccc3c2)CC1 | 1.0% | 7.3% | -10.9% | -4.3% | -7.8%

Continuation:
structure,PINK1 modulator,miR-21 reporter,TrxR1 substrate,GALK inhibitor,rTrxR1 inhibitor
O=C(CCl)N1CCN(S(=O)(=O)c2ccc3ccccc3c2)CC1,-4.2%,u,9.6%,-1.9%,8.91µM*
O=C(CCl)Nc1cc(S(=O)(=O)N2CCCCCC2)ccc1Cl,-1.9%,u,-11.4%,-3.0%,7.94µM*
Cc1ccc(-c2nc(SCC(=O)Nc3cc(S(=O)(=O)N4CCCCC4)ccc3Cl)n[nH]2)cc1,31.6µM*,3.9%,-5.6%,0.6%,-8.2%
COc1cc(OC)c(NC(=O)c2c(C)oc3ncn(C)c(=O)c23)cc1Cl,0.6%,-5.7%,2.9%,x,5.8%
O=C(c1ccco1)[C@@H]1[C@@H]2C(=O)N(c3ccccc3)C(=O)[C@@H]2C2c3ccccc3C=CN21 (stereo partly drawn),2.2%[38.3 µM],-14.8%,2.9%,-1.5%,u
CC(=O)[C@@H]1[C@@H]2C(=O)N(Cc3ccccc3)C(=O)[C@@H]2C2c3ccccc3C=CN21 (stereo partly drawn),11.2µM*,-7.1%,5.9%,-6.1%,u
Cc1ccc(N2C(=O)[C@@H]3[C@H](C2=O)C2c4ccccc4C=CN2[C@@H]3C(=O)c2ccco2)c(C)c1 (stereo partly drawn),0.2%,-9.2%,-15.9%,0.8%,14.1µM*
Cc1ccc(N2C(=O)[C@@H]3[C@H](C2=O)C2c4ccccc4C=CN2[C@@H]3C(=O)c2ccco2)cc1 (stereo partly drawn),-1.7%,-16.2%,-19.0%,-8.2%,u
CNc1ccc(C(=O)Oc2cc(O/N=[N+](\[O-])N(C)C)c([N+](=O)[O-])cc2[N+](=O)[O-])cc1,x,x,-24.9%,x,25.1µM*
CCOC(=O)N1CCN(/[N+]([O-])=N/Oc2ccc([N+](=O)[O-])cc2[N+](=O)[O-])C(C)C1 (stereo not drawn),x,x,-1.3%,x,-12.3%

4 compounds from above, ordered by their value in GALK inhibitor, ascending.
Compound	miR-21 reporter	TrxR1 substrate	GALK inhibitor	rTrxR1 inhibitor
Cc1ccc(N2C(=O)[C@@H]3[C@H](C2=O)C2c4ccccc4C=CN2[C@@H]3C(=O)c2ccco2)cc1 (stereo partly drawn)	-16.2%	-19.0%	-8.2%	u
CC(=O)[C@@H]1[C@@H]2C(=O)N(Cc3ccccc3)C(=O)[C@@H]2C2c3ccccc3C=CN21 (stereo partly drawn)	-7.1%	5.9%	-6.1%	u
Cc1ccc(-c2nc(SCC(=O)Nc3cc(S(=O)(=O)N4CCCCC4)ccc3Cl)n[nH]2)cc1	3.9%	-5.6%	0.6%	-8.2%
Cc1ccc(N2C(=O)[C@@H]3[C@H](C2=O)C2c4ccccc4C=CN2[C@@H]3C(=O)c2ccco2)c(C)c1 (stereo partly drawn)	-9.2%	-15.9%	0.8%	14.1µM*

(more compounds)
structure,PINK1 modulator,miR-21 reporter,TrxR1 substrate,GALK inhibitor,rTrxR1 inhibitor
CN(C)/[N+]([O-])=N\Oc1cc(OC(=O)c2ccc(N)cc2)c([N+](=O)[O-])cc1[N+](=O)[O-],-1.3%,x,-15.9%,x,-33.2%
CN(C)/[N+]([O-])=N/Oc1ccc([N+](=O)[O-])cc1[N+](=O)[O-],-0.1%,x,-11.0%,x,12.6µM*
Nc1ccc(Oc2ccc([N+](=O)[O-])cc2[N+](=O)[O-])cc1,-6.5%[38.3 µM],-16.1%,2.4%[57.1 µM],0.8%,24.5%[57.1 µM]
CN(Cc1ccccc1)/[N+]([O-])=N/Oc1ccc([N+](=O)[O-])cc1[N+](=O)[O-],0.5%,x,-4.4%,x,2.82µM*
CCN(CCN(C)Cl)/[N+]([O-])=N/Oc1ccc([N+](=O)[O-])cc1[N+](=O)[O-],-1.3%,x,-3.2%,x,10µM*
CC(C)(C)n1ncc2c(=O)n(Cc3ccc(Cl)c(OC(F)(F)F)c3)cnc21,x,x,-4.4%,x,11.1%[57.1 µM]
